Values quoted from earlier work as cited in patent publication US20040198789A1, “Lercanidipine/ARB/diuretic therapeutic combinations” (Recordati Ireland Limited, priority 2003, published 2004).

Molecular target: AT1 receptor (Homo sapiens, UniProt P30556)
Details: cited from earlier work

Compound	greater affinity for AT1 receptor compared to AT2 receptor
CCCc1nc(C(C)(C)O)c(C(=O)O)n1Cc1ccc(-c2ccccc2-c2nnn[nH]2)cc1 [olmesartan, 4-(1-hydroxy-1-methylethyl)-2-propyl-1-[p-(o-1H-tetrazol-5-ylphenyl)benzyl]imidazole-5-carboxylic acid]	more than 12,500 fold
CCCCC(=O)N(Cc1ccc(-c2ccccc2-c2nnn[nH]2)cc1)[C@H](C(=O)O)C(C)C [valsartan, N-(1-oxopentyl)-N-[[2′-(1H-tetrazol-5-yl)[1,1′-biphenyl]-4-yl]methyl]-L-valine]	about 20,000 fold
CCCc1nc2c(C)cc(-c3nc4ccccc4n3C)cc2n1Cc1ccc(-c2ccccc2C(=O)O)cc1 [Telmisartan, 4′-[1,4′-dimethyl-2[-propyl[2,6′-bi-1H-benzimidazol]-1′-yl)methyl]-[1,1′-biphenyl]-2-carboxylic acid]	> 3000 fold
CCCCc1nc(Cl)c(CO)n1Cc1ccc(-c2ccccc2-c2nnn[nH]2)cc1.[K] [losartan, 2-butyl-4-chloro-1-[p-(o-1H-tetrazol-5-ylphenyl)-benzyl]imidazole-5-methanol monopotassium salt]	about 1000 fold
